{"sequences": {"note": "Chains of the proteins cited; added tags and fusions are not shown.", "UniProt Q9NZ08, whole entry Y684F/K685A": "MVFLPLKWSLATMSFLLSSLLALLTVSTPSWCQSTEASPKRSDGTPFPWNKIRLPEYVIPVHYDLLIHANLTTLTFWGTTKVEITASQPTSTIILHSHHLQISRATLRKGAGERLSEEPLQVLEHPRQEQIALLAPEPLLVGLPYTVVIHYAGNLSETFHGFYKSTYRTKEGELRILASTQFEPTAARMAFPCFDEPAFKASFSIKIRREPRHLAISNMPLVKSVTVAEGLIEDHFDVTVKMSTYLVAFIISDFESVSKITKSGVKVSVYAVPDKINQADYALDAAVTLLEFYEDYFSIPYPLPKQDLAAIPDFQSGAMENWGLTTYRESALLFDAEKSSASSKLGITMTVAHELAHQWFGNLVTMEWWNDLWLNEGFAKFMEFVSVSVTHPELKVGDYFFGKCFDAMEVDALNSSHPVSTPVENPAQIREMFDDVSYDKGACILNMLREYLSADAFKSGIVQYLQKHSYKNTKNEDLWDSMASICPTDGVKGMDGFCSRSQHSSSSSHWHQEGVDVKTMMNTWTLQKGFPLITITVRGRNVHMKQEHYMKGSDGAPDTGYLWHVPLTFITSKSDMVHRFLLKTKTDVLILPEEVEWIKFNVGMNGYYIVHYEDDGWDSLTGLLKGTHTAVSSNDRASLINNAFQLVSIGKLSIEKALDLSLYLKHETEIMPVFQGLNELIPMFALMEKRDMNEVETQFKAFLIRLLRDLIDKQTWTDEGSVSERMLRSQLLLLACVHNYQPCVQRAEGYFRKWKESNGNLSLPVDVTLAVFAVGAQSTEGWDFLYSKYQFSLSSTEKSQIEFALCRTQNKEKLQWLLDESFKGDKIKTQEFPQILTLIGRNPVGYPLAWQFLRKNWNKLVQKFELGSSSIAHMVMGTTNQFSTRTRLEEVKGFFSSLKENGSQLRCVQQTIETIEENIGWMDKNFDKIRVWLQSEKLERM", "UniProt Q9NZ08, whole entry K685M": "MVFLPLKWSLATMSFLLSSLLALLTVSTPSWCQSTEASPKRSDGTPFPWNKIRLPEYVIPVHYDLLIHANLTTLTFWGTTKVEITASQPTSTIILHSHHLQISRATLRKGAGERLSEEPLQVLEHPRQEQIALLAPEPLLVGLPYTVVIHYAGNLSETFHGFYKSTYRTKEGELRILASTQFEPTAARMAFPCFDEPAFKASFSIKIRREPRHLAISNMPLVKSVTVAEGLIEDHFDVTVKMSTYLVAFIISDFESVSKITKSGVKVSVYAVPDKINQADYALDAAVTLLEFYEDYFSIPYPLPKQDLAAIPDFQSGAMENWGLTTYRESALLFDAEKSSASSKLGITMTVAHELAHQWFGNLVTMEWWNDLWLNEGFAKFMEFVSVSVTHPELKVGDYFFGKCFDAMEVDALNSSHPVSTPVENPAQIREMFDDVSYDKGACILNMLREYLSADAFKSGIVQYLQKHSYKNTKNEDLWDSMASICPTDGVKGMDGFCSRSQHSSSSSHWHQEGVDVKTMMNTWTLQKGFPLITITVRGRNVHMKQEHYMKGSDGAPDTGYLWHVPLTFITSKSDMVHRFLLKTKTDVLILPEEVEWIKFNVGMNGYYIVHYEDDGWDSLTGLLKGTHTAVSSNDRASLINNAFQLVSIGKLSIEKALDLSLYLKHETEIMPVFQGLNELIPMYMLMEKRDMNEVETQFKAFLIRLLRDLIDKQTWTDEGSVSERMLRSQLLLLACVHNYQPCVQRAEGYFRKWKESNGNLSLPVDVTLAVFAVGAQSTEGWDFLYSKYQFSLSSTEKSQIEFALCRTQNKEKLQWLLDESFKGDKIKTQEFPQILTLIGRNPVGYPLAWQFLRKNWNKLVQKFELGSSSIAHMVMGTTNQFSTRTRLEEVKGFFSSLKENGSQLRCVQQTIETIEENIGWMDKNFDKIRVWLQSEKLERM", "UniProt Q9NZ08, whole entry K685A": "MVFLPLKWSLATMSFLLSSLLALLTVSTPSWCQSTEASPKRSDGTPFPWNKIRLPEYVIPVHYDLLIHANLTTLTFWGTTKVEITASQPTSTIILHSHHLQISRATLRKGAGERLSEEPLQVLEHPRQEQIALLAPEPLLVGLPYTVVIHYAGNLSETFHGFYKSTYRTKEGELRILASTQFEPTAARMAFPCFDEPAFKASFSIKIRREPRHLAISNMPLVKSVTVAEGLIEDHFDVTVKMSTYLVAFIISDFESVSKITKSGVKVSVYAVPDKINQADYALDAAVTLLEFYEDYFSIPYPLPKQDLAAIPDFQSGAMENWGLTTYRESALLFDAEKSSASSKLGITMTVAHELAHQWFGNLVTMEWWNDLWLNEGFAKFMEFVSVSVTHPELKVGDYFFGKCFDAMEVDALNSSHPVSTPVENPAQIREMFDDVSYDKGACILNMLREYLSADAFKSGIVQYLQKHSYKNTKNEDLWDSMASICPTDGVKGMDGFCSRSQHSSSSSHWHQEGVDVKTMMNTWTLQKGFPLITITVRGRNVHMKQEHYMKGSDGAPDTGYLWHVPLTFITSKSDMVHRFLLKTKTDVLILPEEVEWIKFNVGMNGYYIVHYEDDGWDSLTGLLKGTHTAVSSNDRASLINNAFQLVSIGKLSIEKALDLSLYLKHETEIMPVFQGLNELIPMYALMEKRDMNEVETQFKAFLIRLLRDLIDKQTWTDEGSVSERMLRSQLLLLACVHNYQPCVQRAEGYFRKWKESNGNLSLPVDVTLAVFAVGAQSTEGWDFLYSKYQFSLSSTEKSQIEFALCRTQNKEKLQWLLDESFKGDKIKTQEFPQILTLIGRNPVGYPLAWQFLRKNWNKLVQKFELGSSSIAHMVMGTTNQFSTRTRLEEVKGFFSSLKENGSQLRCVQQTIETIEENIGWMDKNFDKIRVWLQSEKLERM", "UniProt Q9NZ08, whole entry Y684F": "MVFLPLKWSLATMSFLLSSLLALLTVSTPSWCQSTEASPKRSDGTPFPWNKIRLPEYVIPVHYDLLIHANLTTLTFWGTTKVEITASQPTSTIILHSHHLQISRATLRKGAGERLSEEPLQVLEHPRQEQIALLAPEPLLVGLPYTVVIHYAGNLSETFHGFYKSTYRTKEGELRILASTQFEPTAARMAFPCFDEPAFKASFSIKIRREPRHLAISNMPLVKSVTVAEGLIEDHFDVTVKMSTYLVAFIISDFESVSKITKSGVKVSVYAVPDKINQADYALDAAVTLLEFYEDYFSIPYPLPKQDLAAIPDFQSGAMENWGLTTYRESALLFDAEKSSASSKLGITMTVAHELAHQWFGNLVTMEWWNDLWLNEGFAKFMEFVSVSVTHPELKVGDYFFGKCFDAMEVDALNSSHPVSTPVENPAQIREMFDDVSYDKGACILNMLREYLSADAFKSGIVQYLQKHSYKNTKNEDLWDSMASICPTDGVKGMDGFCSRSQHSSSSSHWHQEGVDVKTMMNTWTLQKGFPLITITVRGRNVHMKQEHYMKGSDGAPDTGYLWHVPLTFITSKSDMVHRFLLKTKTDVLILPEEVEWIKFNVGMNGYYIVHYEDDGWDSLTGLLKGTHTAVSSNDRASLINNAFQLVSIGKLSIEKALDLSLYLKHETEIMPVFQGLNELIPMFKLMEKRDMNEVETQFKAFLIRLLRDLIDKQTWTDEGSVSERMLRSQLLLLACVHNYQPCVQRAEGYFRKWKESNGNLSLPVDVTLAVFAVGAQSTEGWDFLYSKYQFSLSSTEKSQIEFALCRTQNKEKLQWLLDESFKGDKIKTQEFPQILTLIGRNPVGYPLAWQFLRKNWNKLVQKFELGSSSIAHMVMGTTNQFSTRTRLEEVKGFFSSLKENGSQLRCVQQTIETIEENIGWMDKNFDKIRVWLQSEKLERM"}, "source": "ChEMBL document CHEMBL4354860", "about": "“Targeting the Regulatory Site of ER Aminopeptidase 1 Leads to the Discovery of a Natural Product Modulator of Antigen Presentation” (J Med Chem, 2020)", "key": {"[1]": {"test_system": "Endoplasmic reticulum aminopeptidase 1 (Homo sapiens), Q9NZ08 [Y684F,K685A]", "experiment": "Activation of full length C-terminal His6-tagged ERAP1 Y684F/K685A double mutant (unknown origin)-mediated substrate hydrolysis using Leu-AMC as substrate after 60 mins by Rapidfire-MS analysis"}, "[2]": {"biological_target": "Endoplasmic reticulum aminopeptidase 1 (Homo sapiens) (UniProt Q9NZ08)", "experiment": "Allosteric competitive activation of full length C-terminal His6-tagged ERAP1 (unknown origin) assessed as decrease in K prime without change in Vmax at 400 to 800 nM using varying level of Leu-pNA as substrate measured up to 60 mins by Michaelis-Menten analysis"}, "[3]": {"biological_target": "Endoplasmic reticulum aminopeptidase 1 (Homo sapiens) (UniProt Q9NZ08)", "experiment": "Activation of human recombinant ERAP1 assessed as induction of substrate hydrolysis at 10 uM using Leu-AFC as substrate measured after 60 mins by fluorescence based analysis relative to control", "parameters": "scale not given: the % may be the effect or the level left"}, "[4]": {"biological_target": "Endoplasmic reticulum aminopeptidase 1 (Homo sapiens) (UniProt Q9NZ08)", "experiment": "Activation of human recombinant ERAP1 assessed as induction of substrate hydrolysis at 20 uM using Leu-AFC as substrate measured after 60 mins by fluorescence based analysis relative to control", "parameters": "scale not given: the % may be the effect or the level left"}, "[5]": {"test_system": "Endoplasmic reticulum aminopeptidase 1 (Homo sapiens), Q9NZ08 [K685M]", "experiment": "Activation of full length C-terminal His6-tagged ERAP1 K685M mutant (unknown origin)-mediated substrate hydrolysis using Leu-AMC as substrate after 60 mins by Rapidfire-MS analysis"}, "[6]": {"test_system": "Endoplasmic reticulum aminopeptidase 1 (Homo sapiens), Q9NZ08 [K685A]", "experiment": "Activation of full length C-terminal His6-tagged ERAP1 K685A mutant (unknown origin)-mediated substrate hydrolysis using Leu-AMC as substrate after 60 mins by Rapidfire-MS analysis"}, "[7]": {"test_system": "Endoplasmic reticulum aminopeptidase 1 (Homo sapiens), Q9NZ08 [Y684F]", "experiment": "Activation of full length C-terminal His6-tagged ERAP1 Y684F mutant (unknown origin)-mediated substrate hydrolysis using Leu-AMC as substrate after 60 mins by Rapidfire-MS analysis"}, "[8]": {"biological_target": "Endoplasmic reticulum aminopeptidase 1 (Homo sapiens) (UniProt Q9NZ08)", "experiment": "Activation of full length C-terminal His6-tagged ERAP1 (unknown origin)-mediated antigenic epitope destruction assessed as trimming of 9mer peptide substrate YTAFTIPSI to 8mer peptide TAFTIPSI at 100 uM after 60 mins by Rapidfire-MS analysis"}}, "note": "Active and inactive are the calls of the source. No cut-off for these calls is given here."}
{"smiles": "C[C@@H]1C[C@H](O)[C@@]2(C)C(C(=O)O)=CCC[C@@H]2[C@@]1(C)CCc1ccoc1.N", "values": [{"measurement": "Activity", "setting": "[1]", "value": "inactive"}, {"measurement": "Activity", "setting": "[2]", "value": "Active"}, {"measurement": "Activity", "setting": "[3]", "value": 161, "unit": "%"}, {"measurement": "Activity", "setting": "[4]", "value": 167, "unit": "%"}, {"measurement": "Activity", "setting": "[5]", "value": "inactive"}, {"measurement": "Activity", "setting": "[6]", "value": "inactive"}, {"measurement": "Activity", "setting": "[7]", "value": "inactive"}, {"measurement": "Activity", "setting": "[8]", "value": "inactive"}]}
